# Test results: patent US10272087B2, “Pteridines as FGFR inhibitors” (ASTEX THERAPEUTICS LIMITED, priority 2012, dated 2019)
# Tested on: Ba/F3-KDR-transfected cells
# Assay: Ba/F3-KDR (minus IL3 or plus IL3) cellular proliferation assay
# Type: cell-based
# Details: plus IL3 (counterscreen, 10 ng/ml murine IL3); read-out: BAF3-KDR (PLUS IL3 pIC50) (converted)
# Description: Ba/F3-KDR (Minus IL3 or Plus IL3) (Cellular Proliferation Assay)
# As a counterscreen the same experiment was performed in the presence of 10 ng/ml murine IL3.
row,Structure (SMILES),IC50
1,COc1cc(OC)c(F)c(N(C[C@@H]2CCC(=O)N2)c2ncc3ncc(-c4cnn(C)c4)nc3n2)c1 [Compound 11],> 10 µM
2,COc1cc(OC)c(F)c(N(C[C@H]2CCC(=O)N2)c2ncc3ncc(-c4cnn(C)c4)nc3n2)c1 [Compound 10],> 10 µM
3,COc1cc(OC)c(F)c(N(Cc2ncc[nH]2)c2ncc3ncc(-c4cnn(C)c4)nc3n2)c1F [Compound 2],> 10 µM
4,COc1cc(OC)c(F)c(N(Cc2nccn2S(=O)(=O)N(C)C)c2ncc3ncc(-c4cnn(C)c4)nc3n2)c1F [Compound 1],> 10 µM
5,COc1cc(OC)c(F)c(N(Cc2ncc[nH]2)c2ncc3ncc(-c4cnn(C)c4)nc3n2)c1 [Compound 13],> 10 µM
